Measurements from BindingDB's records for doi:10.1016/j.jmb.2004.09.032 (Celera, 2004).

Tests used:
[1] = biological target: Urokinase-type plasminogen activator (Homo sapiens, UniProt P00749); experiment: Enzyme Assay and Determination of the Inhibition Constants
[2] = biological target: Urokinase-type plasminogen activator [179-431,I214M,N322A,S371A] (Homo sapiens, UniProt P00749, I214M/N322A/S371A); experiment: as above

## N=C(N)c1cc2cc(-c3cccc(-c4ccccc4)c3O)[nH]c2cc1F [CA-12]
[1]
  Ki: 16 nM
[2]
  Ki: 1600 nM
